Data taken from patent publication US20250195504A1, “NALTREXAMINE DERIVATIVES BEARING 5-MEMBER HETEROCYCLIC RING SYSTEMS AND OPIOID RECEPTOR MODULATORS” (VIRGINIA COMMONWEALTH UNIVERSITY, priority 2022, published 2025).
Where a name gives a salt, the structure may show the parent alone.

By UniProt entry, the sequences of proteins in these tests, tags left out. Where a name states a change or a piece, a line headed by the entry shows the natural chain unless it says otherwise.
UniProt P33534: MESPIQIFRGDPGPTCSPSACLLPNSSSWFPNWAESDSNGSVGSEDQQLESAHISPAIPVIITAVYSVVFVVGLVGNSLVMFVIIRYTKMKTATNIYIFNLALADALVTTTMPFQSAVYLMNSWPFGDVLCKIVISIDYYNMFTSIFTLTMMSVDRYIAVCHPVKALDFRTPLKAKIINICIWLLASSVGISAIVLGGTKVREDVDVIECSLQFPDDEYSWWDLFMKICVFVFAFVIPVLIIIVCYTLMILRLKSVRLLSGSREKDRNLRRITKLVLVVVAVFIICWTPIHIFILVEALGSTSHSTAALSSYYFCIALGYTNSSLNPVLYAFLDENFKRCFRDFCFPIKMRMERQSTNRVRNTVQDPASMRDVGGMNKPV

Target: KOR (Mus musculus, UniProt P33534)
Assay: KOR [35S]GTPγS binding assay
Format: biochemical
Parameters: expressed in transfected cells; host or cells: CHO

For O=C(N[C@H]1CC[C@@]2(O)[C@H]3Cc4ccc(O)c5c4[C@@]2(CCN3CC2CC2)[C@H]1O5)c1cccs1 [Example 1 compound 25, 17-Cyclopropylmethyl-3,14β-dihydroxy-4,5α-epoxy-6α-(2′-thienylcarboxamido)morphinan hydrochloride], the EC50 was 1.72 ± 0.24 nM.
